# Measured affinities in a library of Ab-14 heavy chain variants

Antigen: PDVDLGDISGINAS, a 14-residue peptide of the SARS-CoV-2 spike HR2 region.

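The starting antibody came from a phage panning campaign against this peptide. Variants in AAYL49 differ from the parent at up to three CDR positions; double and triple changes were sampled at random. The assay is AlphaSeq: two haploid yeast populations carry antibody and antigen on their surface. Mating (16 h, 30 °C) was followed by selection of diploids and sequencing of their barcodes. Each replicate has its own calibration line, from reference interactions of the BCL2 family. Each pool was mated in three replicate cultures.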

Parent scFv Ab-14: VH joined to VL by a 15-residue (Gly4Ser)3 linker. Changes lie in the heavy chain CDRs alone.
VH: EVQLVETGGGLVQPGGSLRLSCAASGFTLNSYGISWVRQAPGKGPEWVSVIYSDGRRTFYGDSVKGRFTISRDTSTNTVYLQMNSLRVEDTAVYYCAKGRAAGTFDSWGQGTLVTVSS
VL: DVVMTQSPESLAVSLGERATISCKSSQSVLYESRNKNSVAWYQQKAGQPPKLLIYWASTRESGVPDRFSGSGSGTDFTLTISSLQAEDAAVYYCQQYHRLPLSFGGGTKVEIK

Positions count from residue 1 of the parent VH; G33D puts D in place of G. Numbers give log10(Kd / nM), so 0 is 1 nM and 3 is 1 µM. Smaller is tighter. A mean of the replicates is given; it leaves out those without a signal. A pair that was not seen in any replicate is written "no signal"; this usually means weak binding, but a binder can also be missed. In this assay the parent's reference entry averaged 0.65; its copy inside this library read 4.11 (one replicate of three). As a blank, each scFv also met three strains without target: over library AAYL49, 15% of these pairings were detected, typically at 4.06 and seldom below 2.83. The control count says in how many pairings with the empty strains this scFv gave a signal.

| mean, log10 nM | replicates with signal | control signals | changes |
|---|---|---|---|
| 3.63 | 2/3 | 1/9 | G33D/G55L/Y60C |
| 4.14 | 2/3 | 2/9 | S31V/G61C/G99T |
| 3.83 | 2/3 | 2/9 | L29T/R57P |
| no signal | 0/3 | 0/9 | R57C/Y60P/G103S |
| no signal | 0/3 | 0/9 | G26I/I34R/S35L |
| no signal | 0/3 | 0/9 | Y32K/Y52V/V64S |
| 1.94 | 1/3 | 0/9 | R57K/V64Q/A102T |
| no signal | 0/3 | 0/9 | D62H/T104H |
| no signal | 0/3 | 2/9 | N30S/Y32S/S53F |
| no signal | 0/3 | 0/9 | Y32H/K65L/S107I |
| 4.30 | 2/3 | 5/9 | F27G/S35D/A102F |
| no signal | 0/3 | 0/9 | G33P/Y60Q/F105C |
| 4.65 | 1/3 | 1/9 | T28A/Y52I/T58Q |
| 4.84 | 2/3 | 4/9 | G26L/Y32W/F59S |
| no signal | 0/3 | 0/9 | R56T/D62F/S63L |
| no signal | 0/3 | 0/9 | Y60K/R100H/A102N |
| no signal | 0/3 | 0/9 | T28N/Y60R/T104E |
| 4.17 | 2/3 | 1/9 | L29D/I34H/V64Y |
| 5.15 | 2/3 | 4/9 | G55T/F59S/K65P |
| no signal | 0/3 | 1/9 | G26P/V50Q |
| 3.81 | 1/3 | 2/9 | L29R/S31E/D62L |
| no signal | 0/3 | 0/9 | G26W/F27D/K65M |
| no signal | 0/3 | 4/9 | F27N/D54N |
| 5.04 | 2/3 | 4/9 | L29W/R56Q/F105N |
| 0.75 | 3/3 | 5/9 | T28P/I51L/A101N |
| 4.74 | 1/3 | 2/9 | S31R/G99E/F105M |
| no signal | 0/3 | 0/9 | G26S/I51E/A102L |
| no signal | 0/3 | 2/9 | G33A/V50T |
| 0.23 | 3/3 | 1/9 | T28A/S31Q/F105I |
| 4.40 | 2/3 | 1/9 | S31E/G33S/F105T |
| 3.60 | 2/3 | 0/9 | T28F/G103T/D106H |
| no signal | 0/3 | 0/9 | S53W/D54F/A102M |
| no signal | 0/3 | 0/9 | N30P/G99D/F105C |
| no signal | 0/3 | 1/9 | S31C/R57T/F105E |
| 4.77 | 2/3 | 3/9 | S35R/V64L |
| 3.41 | 2/3 | 3/9 | Y60Q/G99C/D106V |
| 2.71 | 1/3 | 1/9 | S35N/I51W/R100T |
| no signal | 0/3 | 0/9 | G26Q/T58S/D106I |
| 3.89 | 2/3 | 0/9 | L29H/N30G/R100S |
| 1.19 | 3/3 | 0/9 | S31E/T58F/D62E |
| no signal | 0/3 | 0/9 | T58L/T104Y/D106L |
| no signal | 0/3 | 0/9 | I51L/S63P |
| 3.52 | 2/3 | 0/9 | F27V/Y32I/G55R |
| 2.85 | 3/3 | 0/9 | T28V/Y32A |
| no signal | 0/3 | 1/9 | R57Y/T58V/Y60H |
| no signal | 0/3 | 1/9 | I34P/Y52S/F59C |
| 2.90 | 1/3 | 1/9 | G61C/A101W/T104V |
| 3.89 | 2/3 | 4/9 | T28A/I34G/A102T |
| no signal | 0/3 | 0/9 | G33M/I51A/S63W |
| no signal | 0/3 | 1/9 | Y52I/Y60W/G103K |
| 3.90 | 1/3 | 0/9 | S63Q/G103E/F105P |
| no signal | 0/3 | 0/9 | N30E/S31A/R57A |
| no signal | 0/3 | 1/9 | I51W/G61N/D62Y |
| no signal | 0/3 | 2/9 | G26Y/G55M/Y60F |
| 3.97 | 2/3 | 2/9 | S35F/G61Q/T104E |
| 1.69 | 3/3 | 1/9 | G26K/T28C/S31K |
| no signal | 0/3 | 1/9 | R57S/F59R/G103C |
| 4.39 | 1/3 | 1/9 | L29A/N30R/T104W |
| 3.69 | 1/3 | 0/9 | S35H/F59S/Y60Q |
| no signal | 0/3 | 3/9 | S35R/V50I/R56H |
| no signal | 0/3 | 0/9 | G26K/F27D/V50Q |
| no signal | 0/3 | 0/9 | T28Q/I51E/D106L |
| no signal | 0/3 | 5/9 | G55H/T58D/D106L |
| no signal | 0/3 | 0/9 | G26P/Y52K/G99N |
| no signal | 0/3 | 1/9 | L29R/Y32T/D62G |
| no signal | 0/3 | 2/9 | S35M/D62R/S107H |
| 4.16 | 2/3 | 1/9 | G26D/S35T/T104K |
| 3.66 | 1/3 | 0/9 | T28R/G61F/D62Y |
| no signal | 0/3 | 0/9 | F27Y/Y32M/G55C |
| 4.08 | 1/3 | 3/9 | S31A/Y32P/A102Q |
| 3.59 | 1/3 | 2/9 | T58R/F59C/D62E |
| no signal | 0/3 | 3/9 | S31R/D62K/G103R |
| no signal | 0/3 | 0/9 | F27A/R57L/D106E |
| 4.06 | 1/3 | 1/9 | S53P/D54P/K65E |
| no signal | 0/3 | 0/9 | N30K/F59P/S107F |

11 of these entries, quoted again:

changes,"mean, log10 nM",replicates with signal,control signals
R56T/D62F/S63L,no signal,0/3,0/9
L29H/N30G/R100S,3.89,2/3,0/9
S31R/D62K/G103R,no signal,0/3,3/9
G33M/I51A/S63W,no signal,0/3,0/9
I51L/S63P,no signal,0/3,0/9
G33D/G55L/Y60C,3.63,2/3,1/9
N30K/F59P/S107F,no signal,0/3,0/9
S31E/G33S/F105T,4.40,2/3,1/9
I51W/G61N/D62Y,no signal,0/3,1/9
R57Y/T58V/Y60H,no signal,0/3,1/9
S35M/D62R/S107H,no signal,0/3,2/9

The measurements come from Engelhart et al. 2022 (doi:10.1038/s41597-022-01779-4) through the FLAb antibody collection.